Assay results: patent US9034798B2, “Capture compounds, collections thereof and methods for analyzing the proteome and complex compositions” (CAPROTEC BIOANALYTICS GMBH, priority 2003, dated 2015)

The chains behind the UniProt entries cited, without tags or fusion partners.
UniProt P00915, whole entry: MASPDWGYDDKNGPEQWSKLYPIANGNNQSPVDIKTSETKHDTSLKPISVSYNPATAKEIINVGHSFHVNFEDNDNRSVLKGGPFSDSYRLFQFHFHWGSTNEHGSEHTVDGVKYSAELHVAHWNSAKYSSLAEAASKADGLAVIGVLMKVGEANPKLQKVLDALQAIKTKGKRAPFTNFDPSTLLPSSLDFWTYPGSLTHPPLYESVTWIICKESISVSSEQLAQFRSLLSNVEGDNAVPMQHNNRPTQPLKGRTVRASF

Experiments:
[1] = molecular target: T1, CA I (Homo sapiens, UniProt P00915); conditions: read-out: Kd for CA I; according to literature; independently confirmed using activity assay; cited from earlier work
[2] = molecular target: CA II isoform (Homo sapiens, UniProt P00918); conditions: read-out: Kd for CA II isoform; according to literature; independently confirmed using activity assay; cited from earlier work
[3] = molecular target: Carbonic Anhydrase II (Homo sapiens, UniProt P00918); experiment: Capture and pull-down of doped carbonic anhydrase II from HEK293 cellular fractions; conditions: avidin-coated (SoftLink) resin
[4] = molecular target: Carbonic Anhydrase isoform II (Homo sapiens, UniProt P00918); experiment: Capture and isolation of Carbonic Anhydrase from lysed red blood cells, MALDI
[5] = molecular target: Carbonic Anhydrase isoform I (Homo sapiens, UniProt P00915); experiment: as above
[6] = molecular target: T1, CA I; experiment: Selective protein capture using purified proteins (FIG. 31)
[7] = test system: other purified proteins tested; experiment: as above
[8] = molecular target: Carbonic II (Homo sapiens, UniProt P00918); experiment: as above

In the case of `[N-]=[N+]=Nc1ccc(C(=O)NC(CCCCNC(=O)CCCCCNC(=O)CCCC[C@H]2SCC3NC(=O)NC32)C(=O)OCCNC(=O)c2ccc(S(N)(=O)=O)cc2)cc1` (stereo partly drawn), the Kd [1] is listed as 1 µM, the Kd [2] is listed as 0.01 µM and the “isolation of doped CA II from protein mixture” value ([3]; FPLC purified protein mixture from HEK293) is listed as “pulled out from all other proteins”. For the same compound, the “isolation of doped CA II from protein mixture” value ([3]; whole cytosolic extract from HEK293) was “pulled out from all other proteins”, the “capture of Carbonic Anhydrase isoform II” value [4] was “covalently captures” and the “capture of Carbonic Anhydrase isoform I” value [5] was “covalently captures”. The “affinity and capture efficiency” value [6] was “lower”, the “affinity and capture efficiency” value [7] was “negligible” and the “affinity and capture efficiency” value [8] was “highest”.
